Binding of CDR-mutated scFvs to a peptide of the spike HR2 region

Source: Engelhart et al. 2022 (doi:10.1038/s41597-022-01779-4), MIT Lincoln Laboratory and A-Alpha Bio; data file from the FLAb repository.

Target: peptide PDVDLGDISGINAS, taken from heptad repeat 2 (HR2) of SARS-CoV-2 spike.

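The parent was found by panning a naive human phage display library on the peptide. The library (AAYL50) carries one to three amino acid substitutions per variant, with no insertions or deletions. In AlphaSeq, yeast of one mating type display the scFv and yeast of the other type display the target. Mating (16 h, 30 °C) was followed by selection of diploids and sequencing of their barcodes. Scores were corrected for input abundance and mapped to Kd with protein pairs of known affinity run in the same pool. The assay was run in three technical replicates.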

The variants keep the heavy chain, the linker and the frameworks of Ab-14 (scFv order VH, three GGGGS repeats, VL).
VH: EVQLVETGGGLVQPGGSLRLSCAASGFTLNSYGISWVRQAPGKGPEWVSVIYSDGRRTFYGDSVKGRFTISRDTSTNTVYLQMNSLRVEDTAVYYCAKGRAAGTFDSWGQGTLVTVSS
VL: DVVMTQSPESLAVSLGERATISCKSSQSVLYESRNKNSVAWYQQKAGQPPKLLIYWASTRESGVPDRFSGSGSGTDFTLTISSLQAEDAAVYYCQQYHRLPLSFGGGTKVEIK

Positions count from residue 1 of the parent VL; L30P puts P in place of L. Scale: log10 of Kd in nM, estimated from mating counts; low values are strong binders. A pair that was not seen in that replicate is written "n.d."; this usually means weak binding, but a binder can also be missed. Three control strains display no target. For library AAYL50, 18% of the pairings with them gave a signal, with a median of 4.19 and one signal in twenty below 2.99, so weak values seen in few replicates may be background. For each scFv, signals with the empty controls are counted beside the result, with their mean in brackets.

changes,log10 Kd (nM) by replicate,empty controls
L30P L100C P101S,n.d. / n.d. / n.d.,1 of 9 (1.57)
S26N L30W Q96W,1.38 / 1.14 / 1.54,3 of 9 (3.62)
S33T A40V E61C,n.d. / n.d. / n.d.,2 of 9 (4.57)
N37H S38H P101V,n.d. / n.d. / 4.40,0 of 9
Q27E L30E S62M,1.49 / 1.71 / 1.71,0 of 9
V29W L102V,3.81 / 2.49 / 3.18,1 of 9 (3.43)
S33T A40G H98Y,n.d. / n.d. / n.d.,1 of 9 (4.29)
E32R T59P L102E,4.53 / 3.80 / n.d.,1 of 9 (6.02)
W56K S62W Q95C,n.d. / n.d. / 3.99,2 of 9 (3.30)
N37I S62P Q96W,n.d. / n.d. / n.d.,3 of 9 (3.89)
S62D Y97S L100G,2.62 / 3.25 / n.d.,3 of 9 (3.45)
V29P V39Q R99C,n.d. / 3.59 / n.d.,1 of 9 (4.71)
S38W S58L S103K,n.d. / n.d. / n.d.,0 of 9
Q27C V39T A57I,n.d. / n.d. / n.d.,1 of 9 (3.05)
S25C E61Q S103V,0.72 / 0.82 / 0.77,0 of 9
S33A,0.63 / 0.88 / 0.82,0 of 9
A40I W56R R60D,n.d. / n.d. / n.d.,0 of 9
V29L S62Y H98V,0.23 / 0.48 / 0.33,8 of 9 (5.57)
A57F E61N P101S,n.d. / 4.58 / n.d.,3 of 9 (3.73)
L30V R34S Y97P,0.25 / 0.52 / 0.49,7 of 9 (4.84)
L30A Y31G E61C,0.27 / 0.57 / 0.38,0 of 9
K24T S33W S58C,4.69 / 4.41 / 3.34,2 of 9 (3.11)
K24D S26F S33H,n.d. / 2.86 / 2.57,5 of 9 (4.51)
Q27N E32A,n.d. / 3.39 / n.d.,0 of 9
K36Y A57P R99M,n.d. / n.d. / n.d.,0 of 9
A40R R60M Y97T,n.d. / n.d. / n.d.,2 of 9 (3.29)
S33M S62K Q96A,n.d. / n.d. / n.d.,1 of 9 (3.83)
W56Q R99T S103D,-0.10 / 0.22 / -0.01,4 of 9 (4.75)
A57V R99Y,2.82 / n.d. / n.d.,2 of 9 (3.11)
S26W E61A H98F,0.02 / 0.36 / 0.20,1 of 9 (5.07)
E32W S62D L102M,2.56 / 2.07 / 2.56,4 of 9 (4.54)
T59E L102G,n.d. / n.d. / n.d.,0 of 9
Y97G R99G S103W,1.07 / 1.16 / 1.28,1 of 9 (2.86)
K36F S58I Q95T,n.d. / n.d. / n.d.,1 of 9 (3.66)
V29P A57E R99T,2.33 / 2.51 / 2.70,2 of 9 (4.14)
R34K L102T,1.91 / 2.18 / 2.36,1 of 9 (3.55)
K24H Q95P Y97T,0.37 / 0.62 / 0.58,1 of 9 (3.75)
K36Q V39Q W56Q,n.d. / n.d. / 4.89,1 of 9 (3.65)
K24M W56T S58Y,n.d. / 2.75 / 3.08,0 of 9
V29P R34D Q95D,3.22 / n.d. / n.d.,0 of 9
L30F A40S S103P,n.d. / 4.48 / 4.20,0 of 9
S58D Q96M R99E,3.70 / 4.62 / n.d.,0 of 9
Q27T S28R V29L,0.69 / 0.99 / 1.13,1 of 9 (3.50)
S58P Q95G S103W,n.d. / n.d. / n.d.,3 of 9 (3.52)
T59K R60N S103V,5.07 / 4.83 / 3.97,3 of 9 (4.75)

A selection of 7 entries from above:

changes	log10 Kd (nM) by replicate	empty controls
S38W S58L S103K	n.d. / n.d. / n.d.	0 of 9
S33M S62K Q96A	n.d. / n.d. / n.d.	1 of 9 (3.83)
Q27E L30E S62M	1.49 / 1.71 / 1.71	0 of 9
N37I S62P Q96W	n.d. / n.d. / n.d.	3 of 9 (3.89)
S26N L30W Q96W	1.38 / 1.14 / 1.54	3 of 9 (3.62)
K36F S58I Q95T	n.d. / n.d. / n.d.	1 of 9 (3.66)
V29L S62Y H98V	0.23 / 0.48 / 0.33	8 of 9 (5.57)